Reference: US20180168208A1 (priority 2014, published 2018)
Counter-ions that a name gives are not always drawn.

Molecular target: T1, cat T1R1/T1R3 receptor (Felis catus, UniProt A0ABI7Z2I4)
T1 sequence (A0ABI7Z2I4 171-420): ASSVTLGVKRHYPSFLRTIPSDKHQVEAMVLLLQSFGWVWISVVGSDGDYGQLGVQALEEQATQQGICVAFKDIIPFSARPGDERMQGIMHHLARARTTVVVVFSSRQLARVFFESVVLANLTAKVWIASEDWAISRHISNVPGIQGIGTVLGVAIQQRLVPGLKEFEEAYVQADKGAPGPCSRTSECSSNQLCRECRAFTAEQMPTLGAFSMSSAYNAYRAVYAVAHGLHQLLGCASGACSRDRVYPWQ
T1 sequence (Q49KI5 25-865 E206Q/N523D/F654L partner): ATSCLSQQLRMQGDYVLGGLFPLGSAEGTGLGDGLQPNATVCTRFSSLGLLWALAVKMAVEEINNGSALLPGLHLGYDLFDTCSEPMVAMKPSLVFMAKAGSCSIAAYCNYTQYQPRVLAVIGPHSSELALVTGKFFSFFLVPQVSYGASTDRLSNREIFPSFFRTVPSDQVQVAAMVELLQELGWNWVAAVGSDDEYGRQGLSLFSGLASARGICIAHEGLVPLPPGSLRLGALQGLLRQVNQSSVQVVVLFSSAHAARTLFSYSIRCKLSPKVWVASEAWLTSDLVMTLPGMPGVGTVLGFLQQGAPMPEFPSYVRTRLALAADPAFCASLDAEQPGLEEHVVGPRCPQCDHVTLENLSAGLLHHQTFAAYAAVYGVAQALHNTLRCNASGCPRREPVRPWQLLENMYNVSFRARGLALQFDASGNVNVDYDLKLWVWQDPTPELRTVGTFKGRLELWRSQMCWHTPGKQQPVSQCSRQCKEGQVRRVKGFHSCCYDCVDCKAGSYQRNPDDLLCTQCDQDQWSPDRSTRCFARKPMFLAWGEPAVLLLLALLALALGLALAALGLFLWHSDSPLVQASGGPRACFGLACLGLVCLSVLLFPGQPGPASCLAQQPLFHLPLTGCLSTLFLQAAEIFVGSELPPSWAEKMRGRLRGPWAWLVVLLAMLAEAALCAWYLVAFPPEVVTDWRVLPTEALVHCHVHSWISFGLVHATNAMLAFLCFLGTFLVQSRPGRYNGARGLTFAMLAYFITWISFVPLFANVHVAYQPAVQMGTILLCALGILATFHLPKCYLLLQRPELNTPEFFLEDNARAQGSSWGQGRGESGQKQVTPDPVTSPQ
Type: cell-based
Settings: +Alanine (20 mM)

**Q.** With `Nc1ncnc2c1ncn2C1OC(COP(=O)(O)OS(=O)(=O)O)C(O)C1O` (stereo not shown) [Adenosine 5′-phosphosulfate sodium salt, Adenosine 5′-phosphosulfate] as the compound, how does the Activity read?
**A.** Its Activity is “active”.
